Results: ChEMBL document CHEMBL4393662, “Structural optimization on a virtual screening hit of smoothened receptor” (Eur J Med Chem, 2019)

By UniProt entry, the sequences of proteins in these tests, tags left out.
UniProt P56726, whole entry: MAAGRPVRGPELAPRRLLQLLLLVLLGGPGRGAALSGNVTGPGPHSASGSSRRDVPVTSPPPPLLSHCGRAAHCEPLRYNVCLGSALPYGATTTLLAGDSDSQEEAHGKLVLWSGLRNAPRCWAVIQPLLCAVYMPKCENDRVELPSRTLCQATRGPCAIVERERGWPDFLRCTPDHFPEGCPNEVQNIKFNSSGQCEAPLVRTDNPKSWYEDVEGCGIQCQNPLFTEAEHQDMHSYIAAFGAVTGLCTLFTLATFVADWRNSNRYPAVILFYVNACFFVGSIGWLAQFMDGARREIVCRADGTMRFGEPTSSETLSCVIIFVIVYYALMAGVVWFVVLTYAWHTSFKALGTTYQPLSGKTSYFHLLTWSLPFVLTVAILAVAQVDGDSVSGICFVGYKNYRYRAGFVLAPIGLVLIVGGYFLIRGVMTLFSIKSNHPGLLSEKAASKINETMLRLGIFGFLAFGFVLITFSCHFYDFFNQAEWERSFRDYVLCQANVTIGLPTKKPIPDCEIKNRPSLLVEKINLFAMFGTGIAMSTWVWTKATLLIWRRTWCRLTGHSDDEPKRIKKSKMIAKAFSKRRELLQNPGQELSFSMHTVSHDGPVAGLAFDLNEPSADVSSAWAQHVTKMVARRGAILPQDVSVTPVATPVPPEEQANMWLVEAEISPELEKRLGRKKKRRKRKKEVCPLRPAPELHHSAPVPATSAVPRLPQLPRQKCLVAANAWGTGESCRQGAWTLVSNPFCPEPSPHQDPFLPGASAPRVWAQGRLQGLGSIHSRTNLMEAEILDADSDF

Assays:
[1] = target: Protein smoothened (Mus musculus) (UniProt P56726); assay: (§1) Potency index, ratio of IC50 of vismodegib to IC50 of compound for antagonist activity at Smo receptor in mouse NIH/3T3 cells harboring GRE-Luc assessed as inhibition of SAG-induced Hh signaling pathway preincubated with cells followed by SAG addition measured after 48 hrs by luciferase reporter gene assay; assay type: cell-based
[2] = target: Protein smoothened (Mus musculus) (UniProt P56726); assay: as §1, with “C794-1677” for “vismodegib”; assay type: cell-based

## Cc1ccc(NCc2ccnn2-c2nnc(N3CCC(C(=O)NC4CCCCC4C)CC3)s2)nc1 (racemic)
[1]
  Ratio IC50: 7
[2]
  Ratio IC50: 7
